Earlier results in article PMC9491098, “Discovery of novel drug-like antitubercular hits targeting the MEP pathway enzyme DXPS by strategic application of ligand-based virtual screening” (Chemical Science, 2022).

Tested on: H. influenzae
Settings: Fig. 1A; cited from earlier work

## CC1(C)C(=O)ON(Cc2ccccc2Cl)C1=O [Ketoclomazone, ketoclomazone]
  Activity on target pathogen: MIC: 49 µM
